Data reported in US20240239801A1, “PYRIMIDO[5,4,D]PYRIMIDINE COMPOUNDS, COMPOSITIONS COMPRISING THEM AND USES THEREOF” (Université de Montréal, priority 2021, published 2024).

Key:
Assay in all cases: Proliferation inhibition, CellTiter-Glo
SW620 = details: read-out: SW620 Prolif. EC50; Table D-2; 3 days
Method: (§1) All cancer cell lines (A375, A101D, A2058, RKO, HT29 SK-MEL 30, IPC298, HepG2, HCT-116, Lovo, SW620, SW480, NCI-H358, NCI-H2122, Calu-6, NCIH2087, NCIH1755, NCIH1666 and Mewo) were obtained from ATCC and cultured in RPMI-1640 medium (Gibco) supplemented with 5% heat inactivated fetal bovine serum (FBS, Wisent) at 37° C. under 5% CO2. Cells were maintained in T175 flasks (Greiner). They were passaged by removing the culture medium, washing once in 10 mL of room temperature Phosphate Buffered Saline (PBS; Wisent) and incubating at 37° C. with 2 mL of 0.05% Trypsin (Thermo-Fisher). Trypsin was then inactivated by adding complete growth medium and the cells were then replated in a T175 culture dish at the appropriate dilution. All cell lines were routinely tested for mycoplasma contamination. Tissue type and mutational status of each cell line can be found in Table B.
(§2) CellTiter-Glo® viability analysis was conducted on cells plated in […] of complete RPMI-1640 growth medium in 96-well flat-bottomed white opaque plates (Greiner or Corning) at a density indicated in Table E (for each CCL, number of cells plated per well of a 96-well plate to perform the CellTiter-Glo® cell viability assay). The cell density in cells/cm^2 would correspond to cell number divided by the area of one well of a 96-well plate (0.32 cm^2). Cells were maintained overnight at 37° C. under 5% CO2 before treatment with compounds' dilution series for 3 days.
(§3) In a dilution series 100 μL/well of test substance dilution prepared in complete RPMI-1640 growth media was added to the cells plated initially in 100 μL of growth media. The dilution series is selected so that ten concentrations cover a range from 30 μM or 10 μM to […]. If necessary (as in the case of A375 cells, which were more sensitive to the compounds) the initial concentration of 10 μM is lowered to 1 μM and further dilution is carried out accordingly. The final concentration of DMSO in the assay is set to 0.5%.
(§4) After 3 days of incubation, the growth media were removed by aspiration and 60 μL of diluted CellTiter-Glo® reagent (10 μL CellTiter-Glo® reagent+50 μL of PBS) was added to each well. Cells were allowed to lyse and to equilibrate in CellTiter-Glo® reagent by 5 min incubation on a plate shaker followed by 10 min incubation at room temperature. Luminescence signals were then acquired on a Synergy Neo2 plate reader (Biotek).
(§5) The effect of each compound dilution on the proliferation of cancer cell lines was expressed in % inhibition and calculated as follows. An internal 100% inhibition control (1 μM of trametinib; cat. No. HY-10999; MedChem Express; CAS No. 871700-17-3) was included in each plate and used as a measure of CellTiter-Glo® signal background. The value obtained for trametinib was subtracted from each data point. The average of DMSO (vehicle) controls (set as 0% inhibition) was established and used to calculate % inhibition:
(§6) The ability of each compound to inhibit proliferation was expressed as a EC50 value obtained by plotting the effect values for each data point of a dilution series and fitting the obtained curves using a log(agonist) versus response−variable slope (four parameters) function using GraphPadPrism (V7.0) or Dotmatics Screening Ultra platform.

NCIH1755 = details: read-out: NCIH1755 Prolif. EC50; Table D-2; 3 days
Method: as §1, §2, §3, §4, §5, §6

Lovo = details: read-out: Lovo Prolif. EC50; Table D-2; 3 days
Method: as §1, §2, §3, §4, §5, §6

Mewo = details: read-out: Mewo Prolif. EC50; Table D-2; 3 days
Method: as §1, §2, §3, §4, §5, §6

NCIH2087 = details: read-out: NCIH2087 Prolif. EC50; Table D-2; 3 days
Method: as §1, §2, §3, §4, §5, §6

NCI-H358 = details: read-out: NCI-H358 Prolif. EC50; Table D-2; 3 days
Method: as §1, §2, §3, §4, §5, §6

IPC298 = details: read-out: IPC298 Prolif. EC50; Table D-1; 3 days
Method: as §1, §2, §3, §4, §5, §6

Measured: EC50

O=S(=O)(Nc1ccc(F)c(Nc2ncnc3cnc(-n4cnc5c(N6CCC(O)(C(F)(F)F)CC6)cccc54)nc23)c1F)c1cccc(Cl)c1Cl
< 300 nM: all assays above
